Data published in US20030194749A1 (priority 2002, published 2003).
“And” between values parts separate entries of the source, which are not always exact repeats. Equal entries are not always repeated.

Protein sequences, listed by entry. Tags and fused reporters are not part of them.
UniProt P78527, whole entry: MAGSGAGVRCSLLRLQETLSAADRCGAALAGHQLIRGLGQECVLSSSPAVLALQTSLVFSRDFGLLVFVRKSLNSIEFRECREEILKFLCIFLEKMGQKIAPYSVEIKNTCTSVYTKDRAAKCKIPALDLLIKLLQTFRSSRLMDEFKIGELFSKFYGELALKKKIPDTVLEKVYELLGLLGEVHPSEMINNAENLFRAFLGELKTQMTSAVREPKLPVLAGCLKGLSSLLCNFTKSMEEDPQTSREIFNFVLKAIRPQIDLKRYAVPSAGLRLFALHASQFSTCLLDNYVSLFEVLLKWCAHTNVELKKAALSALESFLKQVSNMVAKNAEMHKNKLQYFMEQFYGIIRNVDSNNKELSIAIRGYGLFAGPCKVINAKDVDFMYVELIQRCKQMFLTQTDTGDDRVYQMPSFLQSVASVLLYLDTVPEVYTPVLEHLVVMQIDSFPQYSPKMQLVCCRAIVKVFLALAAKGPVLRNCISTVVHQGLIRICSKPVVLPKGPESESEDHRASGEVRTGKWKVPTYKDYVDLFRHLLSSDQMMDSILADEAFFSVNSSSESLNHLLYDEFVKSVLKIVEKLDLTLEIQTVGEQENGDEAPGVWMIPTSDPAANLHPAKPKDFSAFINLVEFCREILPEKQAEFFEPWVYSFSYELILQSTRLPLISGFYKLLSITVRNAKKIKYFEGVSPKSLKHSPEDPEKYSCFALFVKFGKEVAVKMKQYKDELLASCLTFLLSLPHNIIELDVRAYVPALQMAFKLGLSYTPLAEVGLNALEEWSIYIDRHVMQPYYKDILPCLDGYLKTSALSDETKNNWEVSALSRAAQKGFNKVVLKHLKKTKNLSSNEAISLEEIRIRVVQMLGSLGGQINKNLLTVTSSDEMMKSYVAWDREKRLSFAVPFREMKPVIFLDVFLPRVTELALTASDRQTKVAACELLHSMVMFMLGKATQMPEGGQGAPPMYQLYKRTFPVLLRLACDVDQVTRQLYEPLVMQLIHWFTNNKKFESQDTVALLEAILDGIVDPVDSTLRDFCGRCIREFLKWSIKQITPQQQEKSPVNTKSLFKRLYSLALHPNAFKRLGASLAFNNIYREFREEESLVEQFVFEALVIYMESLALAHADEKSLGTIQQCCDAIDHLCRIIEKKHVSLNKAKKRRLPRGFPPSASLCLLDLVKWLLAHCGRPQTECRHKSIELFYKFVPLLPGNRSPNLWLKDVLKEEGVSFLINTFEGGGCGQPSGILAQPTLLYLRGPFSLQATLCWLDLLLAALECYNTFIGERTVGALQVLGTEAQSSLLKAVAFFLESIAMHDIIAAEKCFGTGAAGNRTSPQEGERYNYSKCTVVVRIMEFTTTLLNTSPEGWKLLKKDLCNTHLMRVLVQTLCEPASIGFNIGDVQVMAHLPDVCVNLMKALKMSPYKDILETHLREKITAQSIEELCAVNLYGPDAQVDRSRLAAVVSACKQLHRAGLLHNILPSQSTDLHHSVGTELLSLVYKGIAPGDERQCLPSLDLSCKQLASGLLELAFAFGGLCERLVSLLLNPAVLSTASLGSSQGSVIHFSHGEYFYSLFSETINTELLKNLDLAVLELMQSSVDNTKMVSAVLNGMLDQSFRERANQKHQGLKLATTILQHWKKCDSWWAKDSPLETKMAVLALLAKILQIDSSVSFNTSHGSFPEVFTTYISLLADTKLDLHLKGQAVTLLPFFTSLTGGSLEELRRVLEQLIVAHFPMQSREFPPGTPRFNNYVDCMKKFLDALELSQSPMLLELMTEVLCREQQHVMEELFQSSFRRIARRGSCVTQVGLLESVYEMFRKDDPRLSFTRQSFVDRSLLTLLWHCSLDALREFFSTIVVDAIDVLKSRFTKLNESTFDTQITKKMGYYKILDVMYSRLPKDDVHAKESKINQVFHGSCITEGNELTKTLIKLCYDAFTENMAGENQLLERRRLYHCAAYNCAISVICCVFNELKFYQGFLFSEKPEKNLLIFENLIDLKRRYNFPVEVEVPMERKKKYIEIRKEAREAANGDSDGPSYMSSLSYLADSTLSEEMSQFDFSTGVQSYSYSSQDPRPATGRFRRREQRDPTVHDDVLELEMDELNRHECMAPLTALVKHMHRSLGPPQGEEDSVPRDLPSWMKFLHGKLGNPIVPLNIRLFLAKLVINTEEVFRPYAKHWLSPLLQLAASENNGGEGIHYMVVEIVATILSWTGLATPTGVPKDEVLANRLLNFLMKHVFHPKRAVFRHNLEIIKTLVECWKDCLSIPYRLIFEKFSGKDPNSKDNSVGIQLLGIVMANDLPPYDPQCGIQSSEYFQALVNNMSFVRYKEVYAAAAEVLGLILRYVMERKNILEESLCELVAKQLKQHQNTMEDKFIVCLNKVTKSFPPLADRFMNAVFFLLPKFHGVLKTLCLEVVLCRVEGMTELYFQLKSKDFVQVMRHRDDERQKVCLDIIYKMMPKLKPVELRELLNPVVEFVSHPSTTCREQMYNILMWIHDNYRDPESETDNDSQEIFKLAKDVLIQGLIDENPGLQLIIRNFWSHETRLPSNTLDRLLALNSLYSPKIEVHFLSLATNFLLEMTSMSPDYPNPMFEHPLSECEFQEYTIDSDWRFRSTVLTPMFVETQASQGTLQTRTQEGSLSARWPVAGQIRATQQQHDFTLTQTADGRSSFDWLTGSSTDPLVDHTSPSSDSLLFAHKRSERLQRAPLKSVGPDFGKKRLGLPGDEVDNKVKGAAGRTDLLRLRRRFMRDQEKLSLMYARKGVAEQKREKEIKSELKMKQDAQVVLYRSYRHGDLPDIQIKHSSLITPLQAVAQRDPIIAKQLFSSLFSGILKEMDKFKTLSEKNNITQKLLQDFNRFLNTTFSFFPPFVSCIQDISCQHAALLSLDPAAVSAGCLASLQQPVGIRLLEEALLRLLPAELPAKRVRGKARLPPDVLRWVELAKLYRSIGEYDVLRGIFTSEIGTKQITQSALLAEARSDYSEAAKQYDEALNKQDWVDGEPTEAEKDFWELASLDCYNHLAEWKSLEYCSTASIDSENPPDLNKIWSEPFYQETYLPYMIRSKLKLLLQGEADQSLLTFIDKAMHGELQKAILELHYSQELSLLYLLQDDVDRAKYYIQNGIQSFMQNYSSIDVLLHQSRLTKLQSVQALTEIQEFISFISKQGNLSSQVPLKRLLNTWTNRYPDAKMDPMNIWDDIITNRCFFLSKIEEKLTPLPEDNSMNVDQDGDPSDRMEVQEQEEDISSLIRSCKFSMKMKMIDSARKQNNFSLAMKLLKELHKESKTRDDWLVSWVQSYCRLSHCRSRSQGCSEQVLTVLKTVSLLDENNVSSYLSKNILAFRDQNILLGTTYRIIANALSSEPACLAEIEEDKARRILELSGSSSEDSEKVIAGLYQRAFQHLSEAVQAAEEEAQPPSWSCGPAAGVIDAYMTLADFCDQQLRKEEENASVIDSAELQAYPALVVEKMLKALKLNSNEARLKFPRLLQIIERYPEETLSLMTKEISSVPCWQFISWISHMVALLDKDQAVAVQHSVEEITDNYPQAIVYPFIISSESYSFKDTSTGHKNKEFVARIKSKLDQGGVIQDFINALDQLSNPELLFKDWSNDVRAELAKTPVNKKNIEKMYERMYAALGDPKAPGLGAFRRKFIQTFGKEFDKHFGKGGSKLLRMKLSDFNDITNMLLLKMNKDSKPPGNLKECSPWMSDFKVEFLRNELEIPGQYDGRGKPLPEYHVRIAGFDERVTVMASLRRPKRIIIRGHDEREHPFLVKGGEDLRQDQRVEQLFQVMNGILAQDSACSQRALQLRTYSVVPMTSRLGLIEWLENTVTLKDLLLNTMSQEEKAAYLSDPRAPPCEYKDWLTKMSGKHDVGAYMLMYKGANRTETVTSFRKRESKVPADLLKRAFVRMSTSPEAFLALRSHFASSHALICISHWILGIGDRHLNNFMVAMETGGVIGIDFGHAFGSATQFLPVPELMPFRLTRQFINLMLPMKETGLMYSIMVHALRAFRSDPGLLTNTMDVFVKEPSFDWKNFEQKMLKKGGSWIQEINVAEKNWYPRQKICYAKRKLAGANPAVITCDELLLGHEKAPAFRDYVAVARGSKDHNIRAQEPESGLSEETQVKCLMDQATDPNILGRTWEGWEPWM

Biological target: T1, purified DNA-PK (Homo sapiens, UniProt P78527)
T1 construct: purchased Promega
Experiment: DNA-PK kinase assay (p53 substrate)
Type: biochemical
Conditions: IC50 for DNA-PK
Protocol: This mixture was incubated for 10 minutes at RT.
The kinase reaction was stopped by adding 10 μl of 6×SDS sample buffer and boiling for 8 min at 95° C.
The dried gel was either exposed overnight to Biomax film or in the phosphoimager cassette for several hours and quantified using the program Image Quant v1.2 from Molecular Dynamics, Sunnyvale, Calif. (USA). Curves were plotted in the program KaleidaGraph v3.5 (Synergy Software, Reading, Pa.) using the Hill equation.
DNA-PK kinase assays were carried out with purified DNA-PK.
After the kinase reactions were carried out, the samples were separated on a 5-12.5% gradient gel. The gel was cut in half and the upper part (>80 kDa) was transferred to PVDF membrane. Flag-ATR and labeling with biotin-wortmannin were detected by chemiluminescence using α-Flag M5 or streptavidin HRP antibody. The lower half of the gel was stained with coomassie, dried and analyzed by autoradiography.
Therefore in total, 3-4 experiments were carried out in which the substrate phosphorylation was quantified. For the ATR kinase assay, these values were corrected for equal loading by taking the anti-Flag Western signal as a reference.

COC[C@H]1OC(=O)c2coc3c2[C@@]1(C)C1=C(C3=O)[C@@H]2CCC(=O)[C@@]2(C)C[C@H]1OC(C)=O [wortmannin, Wortmannin]
IC50: ~0.14 µM and 0.14 µM | IC50 (read from a graph): 0.14 µM
